# Source: paper PMC11860776 (Viruses, 2025)
# Test system: UT7/EpoS1 cells
# Test: Cell cytotoxicity assay (alamarBlue HS) in UT7/EpoS1 cells
# Type: cell-based
# Conditions: 6 h + 48 h with compound, table: mean (95% CI)
substance,measurement,value
Avermectin B1,CC50,19.5 µM
